Measurements: patent publication US8421457B2, “Methods and systems for magnetically resonating both a subject and a substance administered to the subject” (Applied Magnetics, LLC, priority 2008, dated 2013)

System: fibromyalgia patients
Test: Case reports: fibromyalgia, drugs combined with MR treatment
Format: in vivo, human
Conditions: same subject; thirteen MR treatments within a two-month period
Protocol: In one example, a person experienced fibromyalgia for a number of years. The subject also experienced insomnia, restless legs, and chronic fatigue. The subject took the drug Naproxen (Aleve). The subject received seven consecutive days of 1 to 1.5 hour treatments.
Their primary complaint was back pain. […] The subject received thirteen treatments within a two-month period. […] Approximately two months after completing their first series of treatment, they began a second regimen of ten treatments within a two-month period.
In a further example, a person at least fifty years old suffered from fibromyalgia for a number of years. […] The subject received daily (when possible) treatments for approximately one year.

**Q.** With `CN1CC[C@]23c4c5ccc(O)c4O[C@H]2C(=O)CC[C@H]3[C@H]1C5` [Dilaudid] as the compound, how does the “pain level after treatment, first series” value read?
**A.** Its value is 0.5.
